Earlier results on one substance are cited in patent US20120309677A1, “METHODS FOR REGULATING BLOOD GLUCOSE LEVELS” (Monash University, priority 2010, published 2012).

By UniProt entry, the sequences of proteins in these tests, tags left out. Where a name states a change or a piece, a line headed by the entry shows the natural chain unless it says otherwise.
UniProt P33032: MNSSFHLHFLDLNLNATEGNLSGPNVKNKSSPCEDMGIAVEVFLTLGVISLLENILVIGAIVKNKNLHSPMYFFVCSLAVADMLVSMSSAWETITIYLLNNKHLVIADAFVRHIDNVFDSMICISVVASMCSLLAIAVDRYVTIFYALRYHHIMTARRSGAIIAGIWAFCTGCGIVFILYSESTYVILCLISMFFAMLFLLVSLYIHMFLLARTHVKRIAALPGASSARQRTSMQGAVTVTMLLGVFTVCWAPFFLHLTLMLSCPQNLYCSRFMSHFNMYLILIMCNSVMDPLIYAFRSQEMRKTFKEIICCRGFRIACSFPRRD

The data set concerns the target hMC5R (Homo sapiens, UniProt P33032). The conditions noted are these: cited from earlier work.

As for “Ac-Nle-c[Asp-Pro-D-Nal(2′)-Arg-Trp-Lys]-NH2 [PG-901]”, the EC50 is 72 pM.
